{
  "source": "patent US20210000927A1",
  "about": "“MODULATORS OF COMPLEMENT ACTIVITY” (Ra Pharmaceuticals, Inc., priority 2017, published 2021)",
  "origin": "cited, not measured here",
  "molecules": {"B1": {"name": "eculizumab: a C5 inhibitor monoclonal antibody, approved treatment for PNH (antibody, chains of the INN, looked up)", "heavy": "QVQLVQSGAEVKKPGASVKVSCKASGYIFSNYWIQWVRQAPGQGLEWMGEILPGSGSTEYTENFKDRVTMTRDTSTSTVYMELSSLRSEDTAVYYCARYFFGSSPNWYFDVWGQGTLVTVSSASTKGPSVFPLAPCSRSTSESTAALGCLVKDYFPEPVTVSWNSGALTSGVHTFPAVLQSSGLYSLSSVVTVPSSNFGTQTYTCNVDHKPSNTKVDKTVERKCCVECPPCPAPPVAGPSVFLFPPKPKDTLMISRTPEVTCVVVDVSQEDPEVQFNWYVDGVEVHNAKTKPREEQFNSTYRVVSVLTVLHQDWLNGKEYKCKVSNKGLPSSIEKTISKAKGQPREPQVYTLPPSQEEMTKNQVSLTCLVKGFYPSDIAVEWESNGQPENNYKTTPPVLDSDGSFFLYSRLTVDKSRWQEGNVFSCSVMHEALHNHYTQKSLSLSLG", "light": "DIQMTQSPSSLSASVGDRVTITCGASENIYGALNWYQQKPGKAPKLLIYGATNLADGVPSRFSGSGSGTDFTLTISSLQPEDFATYYCQNVLNTPLTFGQGTKVEIKRTVAAPSVFIFPPSDEQLKSGTASVVCLLNNFYPREAKVQWKVDNALQSGNSQESVTEQDSKDSTYSLSSTLTLSKADYEKHKVYACEVTHQGLSSPVTKSFNRGEC"}},
  "system": "patients with PNH",
  "conditions": "treated for 3 years with eculizumab",
  "data": [
    {"molecule": "B1", "values": [
      {"measurement": "patients transfusion-dependent", "value": 20, "unit": "%"},
      {"measurement": "patients transfusion-independent", "value": 80, "unit": "%"}
    ]}
  ]
}
